Reference: patent US20250197499A1 (STEALTH IO, published 2025)

Experiments:
[1] = molecular target: T1, Recombinant human PD-L2-His tag (ACROBiosystems, #PD2-H5220) (human, UniProt Q9BQ51 20-219); test: Octet RED96e; PD-L2-His loaded at 10 µg/ml on HIS1K sensor; sample 588,2 nM
T1 construct: Bought protein; also called sPD-L2; human PD-L2-His tag protein; not shown: His tag
T1 sequence (looked up): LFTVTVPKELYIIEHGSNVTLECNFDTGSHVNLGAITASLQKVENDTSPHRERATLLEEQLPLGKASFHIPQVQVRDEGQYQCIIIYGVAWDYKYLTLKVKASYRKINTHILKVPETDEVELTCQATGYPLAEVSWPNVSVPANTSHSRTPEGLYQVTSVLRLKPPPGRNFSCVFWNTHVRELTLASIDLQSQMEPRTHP
Description: (§1) FIG. 4a is a graph of Octet binding studies on sPD-L2. Recombinant human PD-L2-His tag (ACROBiosystems, #PD2-H5220) was loaded to His-sensor (HIS1 K (Anti-Penta-His)) at 10 μg/ml and the binding of each construct was evaluated by Octet RED96e.
(§2) FIG. 4c is a graph depicting the KD values of anti-CD28/sPD-1 constructs on human PD-L2-His tag protein by Octet RED96e. The equilibrium dissociation constant (KD) is calculated as the ratio koff/kₒₙ (with koff:dissociation rates, and kₒₙ:association rates).
(§3) Anti-CD28/sPD-1 antibody fusion constructs were assessed for their ability to bind PD-1 ligands, PD-L1 and PD-L2 by Octet RED96e. Recombinant human PD-L1-His tag (ACROBiosystems, #PD1-H5229) or recombinant human PD-L2-His tag (ACROBiosystems, #PD2-H5220) were loaded to His-sensor (HIS1 K (Anti-Penta-His)) at 10 μg/ml. […] FIG. 3c is a summary of affinity (measured as Kd, M) for each construct on human PD-L1. […] FIG. 4c is a summary of affinity (measured as Kd, M) for each construct on human PD-L2.

[2] = molecular target: T2, Recombinant human sCD28 Fc-fusion protein (PeproTech, #310-34) (human, UniProt P10747, in part); test: Octet RED96e; sCD28 Fc-fusion loaded at 2,5 µg/ml on protA sensor; sample 117,6 nM; control without CD28-binding Fab
T2 construct: Bought protein; also called soluble CD28; not shown: Fc part of the bought fusion; not described
Description: (§4) FIG. 5a is a graph of Octet binding studies on sCD28. Recombinant human sCD28 Fc-fusion protein (PeproTech, #310-34) was loaded to protA sensor at 2.5 μg/ml and the binding of each construct was evaluated by Octet RED96e.
(§5) FIG. 5c is a graph depicting the KD values of anti-CD28/sPD-1 constructs on human sCD28 Fc-fusion protein by Octet RED96e. The equilibrium dissociation constant (KD) is calculated as the ratio koff/kₒₙ (with koff:dissociation rates, and kₒₙ:association rates).
(§6) Anti-CD28/sPD-1 antibody fusion constructs were assessed for their ability to bind CD28 by Octet RED96e. Recombinant human sCD28 Fc-fusion protein (PeproTech, #310-34) was loaded to protA sensor at 2.5 μg/ml. […] FIG. 5c is a summary of affinity (measured as Kd, M) for each construct on human CD28.

[3] = molecular target: T1, Recombinant human PD-L2-His tag …; test: Octet RED96e; PD-L2-His loaded at 10 µg/ml on HIS1K sensor; sample 117,6 nM
Description: as §1, §2, §3

[4] = molecular target: T3, Recombinant human PD-L1-His tag (ACROBiosystems, #PD1-H5229) (human); test: Octet RED96e; PD-L1-His loaded at 10 µg/ml on HIS1K sensor; sample 588,2 nM
T3 construct: Bought protein; also called sPD-L1; human PD-L1-His tag protein; not shown: His tag
Description: (§7) FIG. 3a is a graph of Octet binding studies on sPD-L1. Recombinant human PD-L1-His tag (ACROBiosystems, #PD1-H5229) was loaded to His-sensor (HIS1K (Anti-Penta-His)) at 10 μg/ml and the binding of each construct was evaluated by Octet RED96e.
(§8) FIG. 3c is a graph depicting the KD values of anti-CD28/sPD-1 constructs on human PD-L1-His tag protein by Octet RED96e. The equilibrium dissociation constant (KD) is calculated as the ratio koff/kₒₙ (with koff:dissociation rates, and kₒₙ:association rates).
as §3

[5] = molecular target: T2, Recombinant human sCD28 Fc-fusion …; test: Octet RED96e; sCD28 Fc-fusion loaded at 2,5 µg/ml on protA sensor; sample 588,2 nM; control without CD28-binding Fab
Description: as §4, §5, §6

[6] = molecular target: T3, Recombinant human PD-L1-His tag …; test: Octet RED96e; PD-L1-His loaded at 10 µg/ml on HIS1K sensor; sample 117,6 nM
Description: as §7, §8, §3

Kd [1]: 34.7 nM
koff [1]: 0.00328 s⁻¹
kon [1]: 94700 M⁻¹ s⁻¹
Kd [2]: 57.1 nM
koff [2]: 0.00105 s⁻¹
kon [2]: 18400 M⁻¹ s⁻¹
Kd [3]: 15 nM
koff [3]: 0.00311 s⁻¹
kon [3]: 207000 M⁻¹ s⁻¹
Kd [4]: 56.8 nM
koff [4]: 0.0151 s⁻¹
kon [4]: 266000 M⁻¹ s⁻¹
Kd [5]: 47.6 nM
koff [5]: 0.000285 s⁻¹
kon [5]: 5990 M⁻¹ s⁻¹
Kd [6]: 33.9 nM
koff [6]: 0.0145 s⁻¹
kon [6]: 428000 M⁻¹ s⁻¹
B1: nonvalent (or dummy) Fc/sPD-1 wt (Fc fusion)
chain: DKTHTCPPCPAPEFEGGPSVFLFPPKPKDTLMISRTPEVTCVVVDVSHEDPEVKFNWYVDGVEVHNAKTKPREEQYNSTYRVVSVLTVLHQDWLNGKEYKCKVSNKALPASIEKTISKAKGQPREPQVYTLPPSREEMTKNQVSLTCLVKGFYPSDIAVEWESNGQPENNYKTTPPVLDSDGSFFLYSKLTVDKSRWQQGNVFSCSVMHEALHNHYTQKSLSLSPGGGGSGGGGSGGGGSLDSPDRPWNPPTFSPALLVVTEGDNATFTCSFSNTSESFVLNWYRMSPSNQTDKLAAFPEDRSQPGQDCRFRVTQLPNGRDFHMSVVRARRNDSGTYLCGAISLAPKAQIKESLRAELRVTERRAEVPTAHPSPSPRPAGQFQ
notes: also called Fc/sPD-1 wild type; Non-valent Fc/sPD-1
